In PubChem BioAssay (NCI):
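96-well plates; 48 h exposure; 5 concentrations. Endpoints by linear interpolation between flanking doses. Not reached: highest tested concentration assigned. GI50 is the concentration that inhibits growth by half. TGI marks complete inhibition of growth.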

Experiments:
Test in all cases: DTP human tumour cell line panel, 48 h
786-0 renal = test system: 786-0 renal
A498 renal = test system: A498 renal
A549 NSCLC = test system: A549 NSCLC
ACHN renal = test system: ACHN renal
BT-549 breast = test system: BT-549 breast
CAKI-1 renal = test system: CAKI-1 renal
DU-145 prostate = test system: DU-145 prostate
EKVX NSCLC = test system: EKVX NSCLC
HCC-2998 colon = test system: HCC-2998 colon
HCT-116 colon = test system: HCT-116 colon
HCT-15 colon = test system: HCT-15 colon
HL-60(TB) leukemia = test system: HL-60(TB) leukemia
HOP-62 NSCLC = test system: HOP-62 NSCLC
HS 578T breast = test system: HS 578T breast
HT29 colon = test system: HT29 colon
K-562 leukemia = test system: K-562 leukemia
KM12 colon = test system: KM12 colon
LOX IMVI melanoma = test system: LOX IMVI melanoma
M14 melanoma = test system: M14 melanoma
MALME-3M melanoma = test system: MALME-3M melanoma
MCF7 breast = test system: MCF7 breast
MDA-MB-231 breast = test system: MDA-MB-231 breast
MDA-N = test system: MDA-N
MOLT-4 leukemia = test system: MOLT-4 leukemia
NCI-H226 lung = test system: NCI-H226 lung
NCI-H23 lung = test system: NCI-H23 lung
NCI-H460 lung = test system: NCI-H460 lung
NCI/ADR-RES ovarian = test system: NCI/ADR-RES ovarian
OVCAR-3 ovarian = test system: OVCAR-3 ovarian
OVCAR-4 ovarian = test system: OVCAR-4 ovarian
OVCAR-5 ovarian = test system: OVCAR-5 ovarian
OVCAR-8 ovarian = test system: OVCAR-8 ovarian
PC-3 prostate = test system: PC-3 prostate
RPMI-8226 leukemia = test system: RPMI-8226 leukemia
RXF 393 renal = test system: RXF 393 renal
SF-268 CNS = test system: SF-268 CNS
SF-295 CNS = test system: SF-295 CNS
SF-539 CNS = test system: SF-539 CNS
SK-MEL-28 melanoma = test system: SK-MEL-28 melanoma
SK-MEL-5 melanoma = test system: SK-MEL-5 melanoma
SK-OV-3 ovarian = test system: SK-OV-3 ovarian
SN12C renal = test system: SN12C renal
SNB-19 CNS = test system: SNB-19 CNS
SNB-75 CNS = test system: SNB-75 CNS
SR leukemia = test system: SR leukemia
SW-620 colon = test system: SW-620 colon
T-47D breast = test system: T-47D breast
TK-10 renal = test system: TK-10 renal
UACC-257 melanoma = test system: UACC-257 melanoma
UACC-62 melanoma = test system: UACC-62 melanoma
UO-31 renal = test system: UO-31 renal
CCRF-CEM leukemia = test system: CCRF-CEM leukemia
HOP-92 NSCLC = test system: HOP-92 NSCLC
IGROV1 ovarian = test system: IGROV1 ovarian
MDA-MB-435 = test system: MDA-MB-435
NCI-H322M lung = test system: NCI-H322M lung
NCI-H522 lung = test system: NCI-H522 lung
SK-MEL-2 melanoma = test system: SK-MEL-2 melanoma
U251 CNS = test system: U251 CNS

O=[N+]([O-])C(/C=C(/Cl)[N+](=O)[O-])=C(Cl)Cl
GI50 (786-0 renal): 17.9 µM
TGI (786-0 renal): 32.2 µM
GI50 (A498 renal): 71 µM
TGI (A498 renal): > 100 µM
GI50 (A549 NSCLC): > 100 µM
TGI (A549 NSCLC): > 100 µM
GI50 (ACHN renal): 36.1 µM
TGI (ACHN renal): > 100 µM
GI50 (BT-549 breast): 22.6 µM
TGI (BT-549 breast): 65.6 µM
GI50 (CAKI-1 renal): 17.6 µM
TGI (CAKI-1 renal): 33.1 µM
GI50 (DU-145 prostate): > 100 µM
TGI (DU-145 prostate): > 100 µM
GI50 (EKVX NSCLC): > 100 µM
TGI (EKVX NSCLC): > 100 µM
GI50 (HCC-2998 colon): > 100 µM
TGI (HCC-2998 colon): > 100 µM
GI50 (HCT-116 colon): 52.5 µM
TGI (HCT-116 colon): > 100 µM
GI50 (HCT-15 colon): 36.5 µM
TGI (HCT-15 colon): > 100 µM
GI50 (HL-60(TB) leukemia): 20.8 µM
TGI (HL-60(TB) leukemia): 43.5 µM
GI50 (HOP-62 NSCLC): > 100 µM
TGI (HOP-62 NSCLC): > 100 µM
GI50 (HS 578T breast): 12.7 µM
TGI (HS 578T breast): 93.1 µM
GI50 (HT29 colon): 31.4 µM
TGI (HT29 colon): > 100 µM
GI50 (K-562 leukemia): 30.1 µM
TGI (K-562 leukemia): 83.8 µM
GI50 (KM12 colon): > 100 µM
TGI (KM12 colon): > 100 µM
GI50 (LOX IMVI melanoma): 20.9 µM
TGI (LOX IMVI melanoma): 36.3 µM
GI50 (M14 melanoma): > 100 µM
TGI (M14 melanoma): > 100 µM
GI50 (MALME-3M melanoma): 17.8 µM
TGI (MALME-3M melanoma): 39.2 µM
GI50 (MCF7 breast): 27.4 µM
TGI (MCF7 breast): 69.5 µM
GI50 (MDA-MB-231 breast): 65.4 µM
TGI (MDA-MB-231 breast): > 100 µM
GI50 (MDA-N): 45.5 µM
TGI (MDA-N): > 100 µM
GI50 (MOLT-4 leukemia): 43.3 µM
TGI (MOLT-4 leukemia): > 100 µM
GI50 (NCI-H226 lung): > 100 µM
TGI (NCI-H226 lung): > 100 µM
GI50 (NCI-H23 lung): 35.5 µM
TGI (NCI-H23 lung): > 100 µM
GI50 (NCI-H460 lung): > 100 µM
TGI (NCI-H460 lung): > 100 µM
GI50 (NCI/ADR-RES ovarian): 27.1 µM
TGI (NCI/ADR-RES ovarian): 94.1 µM
GI50 (OVCAR-3 ovarian): 21.9 µM
TGI (OVCAR-3 ovarian): 49.8 µM
GI50 (OVCAR-4 ovarian): 37.8 µM
TGI (OVCAR-4 ovarian): > 100 µM
GI50 (OVCAR-5 ovarian): 79.4 µM
TGI (OVCAR-5 ovarian): > 100 µM
GI50 (OVCAR-8 ovarian): 44.1 µM
TGI (OVCAR-8 ovarian): > 100 µM
GI50 (PC-3 prostate): 47.3 µM
TGI (PC-3 prostate): > 100 µM
GI50 (RPMI-8226 leukemia): 34 µM
TGI (RPMI-8226 leukemia): > 100 µM
GI50 (RXF 393 renal): 27 µM
TGI (RXF 393 renal): 84.6 µM
GI50 (SF-268 CNS): 31.2 µM
TGI (SF-268 CNS): > 100 µM
GI50 (SF-295 CNS): > 100 µM
TGI (SF-295 CNS): > 100 µM
GI50 (SF-539 CNS): 74.6 µM
TGI (SF-539 CNS): > 100 µM
GI50 (SK-MEL-28 melanoma): 34.5 µM
TGI (SK-MEL-28 melanoma): > 100 µM
GI50 (SK-MEL-5 melanoma): > 100 µM
TGI (SK-MEL-5 melanoma): > 100 µM
GI50 (SK-OV-3 ovarian): > 100 µM
TGI (SK-OV-3 ovarian): > 100 µM
GI50 (SN12C renal): 47 µM
TGI (SN12C renal): > 100 µM
GI50 (SNB-19 CNS): 4.15 µM
TGI (SNB-19 CNS): 68.6 µM
GI50 (SNB-75 CNS): 42.4 µM
TGI (SNB-75 CNS): > 100 µM
GI50 (SR leukemia): 34 µM
TGI (SR leukemia): > 100 µM
GI50 (SW-620 colon): 37 µM
TGI (SW-620 colon): > 100 µM
GI50 (T-47D breast): 41.8 µM
TGI (T-47D breast): > 100 µM
GI50 (TK-10 renal): 98.2 µM
TGI (TK-10 renal): > 100 µM
GI50 (UACC-257 melanoma): 34.8 µM
TGI (UACC-257 melanoma): > 100 µM
GI50 (UACC-62 melanoma): 36.1 µM
TGI (UACC-62 melanoma): > 100 µM
GI50 (UO-31 renal): > 100 µM
TGI (UO-31 renal): > 100 µM

COc1ccc2c3c1O[C@@H]1C4(OC)CCC5(CC4C(C)(O)C(C)(C)C)[C@H](C2)NCC[C@@]315 (stereo partly drawn)
TGI (786-0 renal): > 100 µM
TGI (A498 renal): > 100 µM
TGI (A549 NSCLC): > 100 µM
TGI (ACHN renal): > 100 µM
TGI (BT-549 breast): 96.6 µM
TGI (CAKI-1 renal): > 100 µM
TGI (CCRF-CEM leukemia): 63.4 µM
TGI (DU-145 prostate): > 100 µM
TGI (EKVX NSCLC): 98.4 µM
TGI (HCC-2998 colon): 22.1 µM
TGI (HCT-116 colon): > 100 µM
TGI (HL-60(TB) leukemia): 38.1 µM
TGI (HOP-62 NSCLC): > 100 µM
TGI (HOP-92 NSCLC): > 100 µM
TGI (HS 578T breast): > 100 µM
TGI (HT29 colon): 83 µM
TGI (IGROV1 ovarian): > 100 µM
TGI (K-562 leukemia): 41.9 µM
TGI (KM12 colon): 53 µM
TGI (M14 melanoma): 32.8 µM
TGI (MALME-3M melanoma): 54.2 µM
TGI (MCF7 breast): > 100 µM
TGI (MDA-MB-231 breast): > 100 µM
TGI (MDA-MB-435): 88.5 µM
TGI (MDA-N): > 100 µM
TGI (MOLT-4 leukemia): 47.3 µM
TGI (NCI-H23 lung): > 100 µM
TGI (NCI-H322M lung): > 100 µM
TGI (NCI-H460 lung): 40.9 µM
TGI (NCI-H522 lung): > 100 µM
TGI (NCI/ADR-RES ovarian): 66.3 µM
TGI (OVCAR-3 ovarian): > 100 µM
TGI (OVCAR-4 ovarian): > 100 µM
TGI (OVCAR-5 ovarian): > 100 µM
TGI (PC-3 prostate): > 100 µM
TGI (RPMI-8226 leukemia): 36 µM
TGI (RXF 393 renal): 57.3 µM
TGI (SF-268 CNS): > 100 µM
TGI (SF-295 CNS): > 100 µM
TGI (SK-MEL-2 melanoma): 37.1 µM
TGI (SK-OV-3 ovarian): > 100 µM
TGI (SN12C renal): > 100 µM
TGI (SNB-19 CNS): > 100 µM
TGI (SR leukemia): 37.6 µM
TGI (SW-620 colon): > 100 µM
TGI (T-47D breast): 46.6 µM
TGI (TK-10 renal): > 100 µM
TGI (U251 CNS): > 100 µM
TGI (UACC-257 melanoma): 38.7 µM
TGI (UACC-62 melanoma): 74.2 µM
TGI (UO-31 renal): > 100 µM
